Biological target: Adenosine A2 receptor (Rattus norvegicus, UniProt P29276+P30543)

Amino acid sequences for entries named in this document (tags omitted). A change or cut given only in a name is not applied to a line headed by its entry.
UniProt P29276: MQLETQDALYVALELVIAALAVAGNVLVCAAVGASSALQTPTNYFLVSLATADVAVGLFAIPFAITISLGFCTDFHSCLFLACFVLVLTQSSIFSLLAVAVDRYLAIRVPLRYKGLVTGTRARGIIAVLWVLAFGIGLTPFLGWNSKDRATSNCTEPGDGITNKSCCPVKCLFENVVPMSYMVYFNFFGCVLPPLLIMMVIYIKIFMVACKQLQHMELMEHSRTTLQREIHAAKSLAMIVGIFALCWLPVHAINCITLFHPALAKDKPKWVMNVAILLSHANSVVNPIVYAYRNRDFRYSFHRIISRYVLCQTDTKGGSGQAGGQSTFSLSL
UniProt P30543: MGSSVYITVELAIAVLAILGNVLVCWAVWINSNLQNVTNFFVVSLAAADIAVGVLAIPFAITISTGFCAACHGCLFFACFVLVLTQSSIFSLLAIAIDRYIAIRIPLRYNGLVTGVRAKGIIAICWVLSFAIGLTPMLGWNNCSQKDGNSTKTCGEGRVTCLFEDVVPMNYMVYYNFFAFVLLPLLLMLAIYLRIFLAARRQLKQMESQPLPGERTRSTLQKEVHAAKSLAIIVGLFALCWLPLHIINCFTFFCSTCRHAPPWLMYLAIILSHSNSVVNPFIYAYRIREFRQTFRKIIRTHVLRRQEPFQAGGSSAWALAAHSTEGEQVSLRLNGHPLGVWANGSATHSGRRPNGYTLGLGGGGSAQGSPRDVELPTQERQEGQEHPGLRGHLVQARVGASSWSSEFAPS

## CCCCC#Cc1nc(N)c2ncn([C@@H]3O[C@H](CO)[C@@H](O)[C@H]3O)c2n1
  Ki: 3.6 nM

Reference: ChEMBL document CHEMBL1126089, “2-Alkynyl derivatives of adenosine and adenosine-5'-N-ethyluronamide as selective agonists at A2 adenosine receptors” (J Med Chem, 1992)
